Results from US20120129928A1, “Chlorine-Free Liquid Microbicide Treatment” (University of Georgia Research Foundation, Inc., priority 2010, published 2012).

Legend:
various yeast species = experiment: Effect of levulinic acids plus SDS at 21° C. on various yeast species; format: cell-based; conditions: 0 min (delayed by 5 to 10 seconds)
various mold species = experiment: Effect of levulinic acids plus SDS at 21° C. on various mold species; conditions: for Mold counts at min: 0: 0 min (delayed by 5 to 10 seconds); for Mold counts at min: 1: 1 min; for Mold counts at min: 2: 2 min; for Mold counts at min: 5: 5 min; for Mold counts at min: 10: 10 min; for Mold counts at min: 20: 20 min; for Mold counts at min: 30: 30 min; for Mold counts at min: 60: 60 min

Row | Structure (SMILES) | Yeast counts at min: 0 (various yeast species; Debaryomyces hansenii) | Yeast counts at min: 0 (various yeast species; Geotrichum candidum) | Yeast counts at min: 0 (various yeast species; Saccharomyces cerevisiae) | Mold counts at min: 0 (various mold species; Penicillium pubeseus) | Mold counts at min: 1 (various mold species; Penicillium pubeseus) | Mold counts at min: 2 (various mold species; Penicillium pubeseus) | Mold counts at min: 5 (various mold species; Penicillium pubeseus) | Mold counts at min: 10 (various mold species; Penicillium pubeseus) | Mold counts at min: 20 (various mold species; Penicillium pubeseus) | Mold counts at min: 30 (various mold species; Penicillium pubeseus) | Mold counts at min: 60 (various mold species; Penicillium pubeseus) | Mold counts at min: 0 (various mold species; Mucor hiemalis) | Mold counts at min: 1 (various mold species; Mucor hiemalis) | Mold counts at min: 2 (various mold species; Mucor hiemalis) | Mold counts at min: 5 (various mold species; Mucor hiemalis) | Mold counts at min: 10 (various mold species; Mucor hiemalis) | Mold counts at min: 20 (various mold species; Mucor hiemalis) | Mold counts at min: 30 (various mold species; Mucor hiemalis) | Mold counts at min: 60 (various mold species; Mucor hiemalis) | Mold counts at min: 0 (various mold species; Penicillium expansum) | also measured
1 | CC(=O)CCC(=O)O [levulinic acid] | 4.9 log CFU/ml | 4.6 log CFU/ml | 5.4 log CFU/ml | 5.2 log CFU/ml | 4.9 log CFU/ml | 4.8 log CFU/ml | 5.2 log CFU/ml | 4.0 log CFU/ml | 3.2 log CFU/ml | 2.7 log CFU/ml | 1.7 log CFU/ml | – | – | – | – | – | – | – | – | – | –
2 | CC(=O)CCC(=O)O [3.0% levulinic acids] | – | – | – | – | – | – | – | – | – | – | – | 6.1 log CFU/ml | 6.2 log CFU/ml | 6.2 log CFU/ml | 6.0 log CFU/ml | 5.8 log CFU/ml | 5.1 log CFU/ml | 4.8 log CFU/ml | 4.1 log CFU/ml | 4.3 log CFU/ml | Mold counts at min: 1 (various mold species; Penicillium expansum): 4.4 log CFU/ml; Mold counts at min: 2 (various mold species; Penicillium expansum): 4.2 log CFU/ml; Mold counts at min: 5 (various mold species; Penicillium expansum): 4.0 log CFU/ml; Mold counts at min: 10 (various mold species; Penicillium expansum): 3.7 log CFU/ml; Mold counts at min: 20 (various mold species; Penicillium expansum): 3.3 log CFU/ml; Mold counts at min: 30 (various mold species; Penicillium expansum): 3.3 log CFU/ml; Mold counts at min: 60 (various mold species; Penicillium expansum): 2.4 log CFU/ml
3 | CC(=O)CCC(=O)O [2% levulinic acid] | – | – | – | – | – | – | – | – | – | – | – | – | – | – | – | – | – | – | – | – | Yeast counts at min: 0 (various yeast species; Zygosaccharomyces bailii): 5.4 log CFU/ml
4 | CC(=O)CCC(=O)O [2.0% levulinic acids] | – | – | – | – | – | – | – | – | – | – | – | – | – | – | – | – | – | – | – | – | Yeast counts at min: 0 (various yeast species; Candida magnoliae): 6.0 log CFU/ml
5 | CCCCCCCCCCCCOS(=O)(=O)[O-].[Na+] [1.0% SDS] | 4.5 log CFU/ml | 3.6 log CFU/ml | 2.7 log CFU/ml | – | – | – | – | – | – | – | – | – | – | – | – | – | – | – | – | – | Yeast counts at min: 0 (various yeast species; Candida magnoliae): 3.5 log CFU/ml; Yeast counts at min: 0 (various yeast species; Zygosaccharomyces bailii): 4.6 log CFU/ml
6 | CCCCCCCCCCCCOS(=O)(=O)[O-].[Na+] [2.0% SDS] | – | – | – | 4.4 log CFU/ml | 4.3 log CFU/ml | 4.4 log CFU/ml | 4.4 log CFU/ml | 4.5 log CFU/ml | 4.5 log CFU/ml | 4.4 log CFU/ml | 4.4 log CFU/ml | 6.0 log CFU/ml | 5.8 log CFU/ml | 5.8 log CFU/ml | 6.0 log CFU/ml | 5.9 log CFU/ml | 5.8 log CFU/ml | 5.8 log CFU/ml | 5.4 log CFU/ml | 4.2 log CFU/ml | Mold counts at min: 1 (various mold species; Penicillium expansum): 4.1 log CFU/ml; Mold counts at min: 2 (various mold species; Penicillium expansum): 3.8 log CFU/ml; Mold counts at min: 5 (various mold species; Penicillium expansum): 3.4 log CFU/ml; Mold counts at min: 10 (various mold species; Penicillium expansum): 3.5 log CFU/ml; Mold counts at min: 20 (various mold species; Penicillium expansum): 3.5 log CFU/ml; Mold counts at min: 30 (various mold species; Penicillium expansum): 3.5 log CFU/ml; Mold counts at min: 60 (various mold species; Penicillium expansum): 3.6 log CFU/ml
